AlphaSeq binding of Ab-14 light chain variants to a spike HR2 peptide

Antigen: PDVDLGDISGINAS, a 14-residue peptide of the SARS-CoV-2 spike HR2 region.

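The starting antibody came from a phage panning campaign against this peptide. This is the validation round: designs drawn from the data on random variants, tested in the same kind of assay. Their group label is 14L_En_Gibbs (En: ensemble of fine-tuned language models; Gibbs: Gibbs sampling). Affinity was read by AlphaSeq, a pooled yeast mating assay with surface-displayed partners. Pairs that bind mate more often; barcode pairs of the diploids are counted by sequencing. Read counts were normalised to the haploid input and turned into Kd by a linear fit to BCL2-family pairs of known affinity, for each replicate. Mating was done six times.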

Ab-14 is the parent antibody, in scFv form: VH, then a 15-residue (Gly4Ser)3 linker, then VL. The heavy chain is unchanged in all variants.
VH: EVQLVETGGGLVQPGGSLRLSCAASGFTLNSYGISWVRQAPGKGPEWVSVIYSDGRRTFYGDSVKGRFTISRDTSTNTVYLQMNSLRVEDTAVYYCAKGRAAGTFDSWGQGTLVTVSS
VL: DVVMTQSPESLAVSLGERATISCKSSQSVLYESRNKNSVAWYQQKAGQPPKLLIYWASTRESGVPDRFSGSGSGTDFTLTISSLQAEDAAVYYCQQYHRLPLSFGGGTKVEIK

Each variant is given by its three light chain CDRs, as the data file delimits them; those of the parent are KSSQSVLYESRNKNSVA, WASTRES, QQYHRLPLS.
Affinities are written as log10 Kd with Kd in nM; a lower number is a better binder.
Averages over replicates are reported, and they cover detected replicates only.
"nd" marks a missing value. The strain was present, yet no cells mated with the target were sequenced in that replicate, which points to weak or no binding.
Nonspecific signal, from three strains lacking the peptide, appeared in 4% of pairings of all light chain designs, centred on 2.64 (5% of these signals below 1.59); values are not corrected for it. The control count says in how many pairings with the empty strains this scFv gave a signal, with their mean in brackets.
In the paper, a design with two or fewer of six values counts as a poor binder.
The parent sequence was in this pool as ten entries: three were never detected, three once, and four in most replicates, with averages from 0.34 to 2.37.
Values of this round are not directly comparable with the first-round values of the same sequences.

CDR-L1 | CDR-L2 | CDR-L3 | log10 Kd (nM) by replicate | log10 Kd (nM), mean | signal with controls
KVSDPMVEWIANQSAVA | DHADVQH | QQYARLPLS | 2.59 / 2.05 / 2.07 / 0.95 / 2.68 / 2.26 | 2.10 | 1/18 (2.74)
TLMHHQDYQDEWKKSIA | NAIIKER | QQYSRLPLA | 1.80 / 1.58 / 1.56 / 1.51 / 1.98 / 2.03 | 1.74 | 1/18 (2.48)
MMGMTVTNQSNMIQNVA | DMNERFA | QQYFQLPLS | 0.83 / 0.54 / 0.53 / 0.48 / 1.13 / 1.23 | 0.79 | 1/18 (2.71)
SLTAHVEEAKGAENSVA | EAVMLES | QQYHQLPLM | 3.02 / 1.30 / 1.07 / 0.94 / 0.32 / 0.69 | 1.22 | 0/18
HVNHEYLDYKNYENNIA | HGSQRLY | QQYSHLPLS | 0.29 / 0.28 / 0.31 / 0.16 / 0.27 / 0.43 | 0.29 | 1/18 (2.79)
QLQFLDVQYGVKEQAIA | EENQRMQ | QHYFRLPLS | 0.92 / 0.81 / 1.24 / 0.55 / 0.92 / 1.11 | 0.93 | 0/18
SLYENYQMGGQHTNAVA | DANQMMR | QHYNRLPLA | 0.86 / 0.75 / 1.50 / 0.67 / 0.75 / 0.64 | 0.86 | 1/18 (2.05)
ALSDWEWAGEENINAIA | DRSALEW | QQYGRLPLS | 1.72 / 1.29 / 1.07 / 1.50 / 1.64 / 1.61 | 1.47 | 0/18
MGLESYQQGVHEMNNVA | EGDQKLD | QQYYRLPLL | 0.41 / 0.56 / 0.33 / 0.36 / 0.50 / 0.45 | 0.43 | 3/18 (2.61)
ELFFNDFQLAIQSNNIA | HASLREV | QQYAHLPLV | nd / nd / nd / nd / nd / nd | nd | 0/18
ALSGWEWAGNENINAVA | DRSALEW | QQYERLPLS | 0.94 / 1.13 / 1.20 / 1.20 / 1.06 / 1.31 | 1.14 | 0/18
KLKYQADHYGMQWNNVA | QADIRAP | QQYNKLPLN | 0.23 / 0.15 / -0.24 / 0.14 / 0.04 / 0.18 | 0.08 | 0/18
VLSDTIGNQYDEADNIA | DKTETSE | QQYARLPLS | 0.40 / 1.02 / 1.15 / 1.01 / 0.95 / 0.98 | 0.92 | 0/18
QLRDDIWADGMNKGSIA | ANEVLKD | QQYNRLPLS | 0.96 / 0.88 / 0.75 / 0.86 / 0.77 / 0.75 | 0.83 | 2/18 (2.64)
MMAHQPESINQRMNNVA | NGAEAVE | QQYDRLPLI | 0.57 / 1.23 / 1.36 / 0.54 / 0.86 / 0.85 | 0.90 | 0/18
QFDTNLHYMGANKNSVA | EMTEKTT | QQYHRLPIE | 1.92 / 1.97 / 1.55 / 2.95 / 1.64 / 2.24 | 2.04 | 0/18
YMSGQEPGDWNQQEAVA | EVTYKEH | QQYYRLPLS | nd / 1.33 / 1.40 / 1.68 / 2.51 / 2.31 | 1.85 | 0/18
KFSYEYEMVNTAKESIA | NAHTVQM | QQYSRLPLA | 1.50 / 1.13 / 0.75 / 1.04 / 0.91 / 1.52 | 1.14 | 0/18
HVHSLMAIRQEIQNNVA | DAQNRNA | QQYFRLPLA | 0.96 / 0.72 / 1.08 / 1.19 / 0.71 / 1.05 | 0.95 | 0/18
QIQGKLQEGGNQGANVA | QGVESKN | QQYFRLPLT | 0.74 / 0.72 / 1.16 / -0.21 / 0.24 / 1.23 | 0.65 | 0/18
QINLQGLSAALNNRNVA | AKNLRVD | QQYNRLPLS | 0.27 / 0.49 / 0.38 / 0.12 / 0.37 / 0.30 | 0.32 | 2/18 (1.96)
KLTHPTDLWLNHVSAIA | DANISVE | QQYYQLPLT | 0.83 / 0.62 / 0.49 / 0.76 / 0.23 / 0.85 | 0.63 | 0/18
QLTENDRGHQAGGGSIA | DATETME | QQYMHLPLS | 0.49 / 0.13 / -0.05 / 0.33 / 0.02 / 0.47 | 0.23 | 0/18
HVANYPENFRSAKDNIA | DDSATTS | QQYDRLPLA | nd / nd / nd / 2.75 / nd / nd | 2.75 | 0/18
KLSSEYFDSYGNRQAVA | ENEATSN | QQYSLLPLS | nd / nd / nd / nd / nd / nd | nd | 0/18
NVDISQNTNYNHKANVA | DHDERVG | QQYSRLPLS | -0.21 / -0.16 / -0.37 / -0.48 / -0.50 / -0.21 | -0.32 | 1/18 (2.40)
HMRHEFYGYWNYDQAVA | HENQRLN | QQYSRLPLS | nd / 1.51 / nd / 1.50 / 2.58 / 3.31 | 2.23 | 0/18
RLWAYTQGFFRNMQNIA | DISYRVT | QQYGRLPLS | nd / nd / nd / nd / nd / nd | nd | 0/18
RIQMGDLEGRTAWNNIA | DGEEIYR | QQYVRLPLY | 0.46 / 0.79 / 0.79 / 1.13 / 0.22 / 0.14 | 0.59 | 0/18
HIQSESEHPYKDKNSMA | DAECKAA | QQYFRLPLM | 0.84 / 0.52 / 0.01 / 0.83 / -0.08 / 0.47 | 0.43 | 0/18
MFEEYQSEGGANNNNVA | DHECGIR | QQYYRLPLT | nd / nd / nd / nd / nd / nd | nd | 4/18 (2.03)
FMEMDFDGNSVNHNSIA | SEEVVTR | QHYARLPLS | nd / nd / nd / nd / nd / nd | nd | 0/18
NLSWKSLGFENEWMAIA | NTSERNA | QQYARLPLS | 1.03 / 0.54 / 0.61 / 0.57 / 0.45 / 0.81 | 0.67 | 1/18 (2.60)
ALTAHRLVAIEQKNSIA | NAVMRYQ | QQYAQLPLM | 0.39 / 0.79 / 0.98 / 0.10 / 0.63 / 0.32 | 0.54 | 0/18
KLDYLNGEMDIGGDSIA | EVSTAGM | QQYWRLPLS | 1.79 / 2.05 / 1.24 / 1.29 / 1.72 / 1.53 | 1.60 | 2/18 (2.23)
QTDSFYQHGDDQNQAMA | DVTMRDQ | QQYSRLPLS | 0.32 / 0.73 / 0.43 / 0.24 / 0.51 / 0.53 | 0.46 | 3/18 (2.58)
MVLKEDFGEYAAKDNVA | NAAEKET | QHYARLPLV | 0.52 / 0.32 / 0.31 / 0.78 / 0.31 / 0.70 | 0.49 | 0/18
SLTAHHQEAKSAENSIA | EAVMLES | QQYHQLPLM | nd / nd / nd / nd / nd / nd | nd | 0/18
WLSMWEQSGTRGYSSVA | DTDVRMA | QQYHRLPLS | 0.10 / -0.07 / -0.08 / -0.18 / -0.19 / 0.05 | -0.06 | 1/18 (2.42)
NLVGRVEDNYTERNAIA | DMHCRAG | QQYSRLPLS | 1.00 / 1.14 / 1.18 / 1.01 / 1.00 / 1.51 | 1.14 | 2/18 (3.61)
RLNVFQNVITQQNNNIA | QAEQKVH | QQYMRLPLY | 0.17 / -0.08 / 0.06 / -0.12 / -0.36 / -0.05 | -0.06 | 0/18
NLSIQCQHQNMSANAVA | QTEIREV | QQYAQLPLA | 1.29 / 1.66 / nd / nd / 3.08 / 1.58 | 1.90 | 0/18
KIRVNHYMFSQMESNIA | GSSVRST | QQYFHLPLT | 0.42 / 0.46 / 0.47 / 0.28 / 0.50 / 0.67 | 0.46 | 0/18
NMHNMCYQYENYGNSIA | HANLREN | QQYSRLPFT | 0.21 / 0.08 / 0.37 / 0.16 / -0.01 / 0.33 | 0.19 | 1/18 (1.50)
TIDLYTSYGNGENKAIA | DVSIKDY | QQYARLPLL | 0.64 / 0.90 / 0.79 / 0.38 / 0.46 / 0.65 | 0.64 | 1/18 (1.10)
TLSGHQYNYSQKKNSIA | EDNNIRL | QQYWRLPLM | nd / nd / nd / nd / nd / nd | nd | 1/18 (1.70)

Picked from the list: the 6 lowest averages where every replicate gave a value.

| CDR-L1 | CDR-L2 | CDR-L3 | log10 Kd (nM) by replicate | log10 Kd (nM), mean | signal with controls |
|---|---|---|---|---|---|
| NVDISQNTNYNHKANVA | DHDERVG | QQYSRLPLS | -0.21 / -0.16 / -0.37 / -0.48 / -0.50 / -0.21 | -0.32 | 1/18 (2.40) |
| RLNVFQNVITQQNNNIA | QAEQKVH | QQYMRLPLY | 0.17 / -0.08 / 0.06 / -0.12 / -0.36 / -0.05 | -0.06 | 0/18 |
| WLSMWEQSGTRGYSSVA | DTDVRMA | QQYHRLPLS | 0.10 / -0.07 / -0.08 / -0.18 / -0.19 / 0.05 | -0.06 | 1/18 (2.42) |
| KLKYQADHYGMQWNNVA | QADIRAP | QQYNKLPLN | 0.23 / 0.15 / -0.24 / 0.14 / 0.04 / 0.18 | 0.08 | 0/18 |
| NMHNMCYQYENYGNSIA | HANLREN | QQYSRLPFT | 0.21 / 0.08 / 0.37 / 0.16 / -0.01 / 0.33 | 0.19 | 1/18 (1.50) |
| QLTENDRGHQAGGGSIA | DATETME | QQYMHLPLS | 0.49 / 0.13 / -0.05 / 0.33 / 0.02 / 0.47 | 0.23 | 0/18 |

From the AlphaSeq antibody data of Li et al. 2023 (doi:10.1038/s41467-023-39022-2), copy in the FLAb collection.